# Data reported in EP2181998B1, “New benzothiazinone derivative and its use as antibacterial agent” (priority 2006, dated 2007).
# Legend:
# [1] = tested on: Mycobacterium smegmatis SG 987; type: cell-based; settings: Mycolicibacterium smegmatis, SG987, read-out: MIC M. smegmatis
# [2] = tested on: M. vaccae IMET 10 10670; type: cell-based; settings: Mycolicibacterium vaccae, IMET1010670, read-out: MIC M.vaccae
structure (smiles),measurement,setting,value
"CCOC1(OCC)CCN(c2nc(=O)c3cc([N+](=O)[O-])cc([N+](=O)[O-])c3s2)CC1 [Compound 6, 2-(4,4-diethoxypiperidin-l-yl)-6,8-dinitro-1,3-benzothiazin-4-one]",MIC,[1],> 10 µg/mL
same,MIC,[2],0.04 µg/mL
